In patent publication US20220023289A1, “Application Of Pyrroloquinoline Quinone In Preparation Of Medicament Used For Preventing And Treating Acute Altitude Sickness And Acute Altitude Hypoxia Injury” (priority 2018, published 2022):

What was measured:
[1] = system: rats with acute altitude hypoxia injury; experiment: Oxidative stress indexes of rats with acute altitude hypoxia injury; type: in vivo, Wistar rat; details: male rats, 0.11 g/kg
Description: Determination of malondialdehyde: […] Operate according to the instructions, and then measure the absorbance value of each tube, and afterwards calculate the content of malondialdehyde in the sample to be tested according to the formula. Determination of superoxide dismutase: […] The latter oxidizes hydroxylamine to form nitrite. It appears purplish red under the action of chromogenic agent. Measure its absorbance by a visible light spectrophotometer. When the measured sample contains superoxide dismutase, it has specific inhibitory effect on superoxide anion free radicals, make formed nitrite reduced. The absorbance value of the measuring tube is lower than that of the control tube during colorimetry. The superoxide dismutase activity in the tested sample can be calculated by formula calculation. […] Determination of total antioxidant capacity (T-AOC): […] The latter can form a stable complex with phenanthrophins and measure its antioxidant capacity by colorimetry. Operate according to the kit instructions, measure the absorbance of each tube at a wavelength of 520 nm, and then calculate the total antioxidant capacity in the sample to be tested according to the formula.

[2] = system: rats exposed to acute altitude hypoxia; experiment: Renal function in rats exposed to acute altitude hypoxia; type: in vivo, Wistar rat; details: female rats, normoxia, 0.11 g/kg

CC(=O)Nc1nnc(S(N)(=O)=O)s1 [Acetazolamide, reference compound]
Total antioxidants [1]: 1.23 ± 1.93 U/ml
Serum urea nitrogen [2]: 7.86 ± 0.49 mmol/L
